{"source": "patent US20260027128A1", "about": "(priority 2016, published 2026)", "system": "male Sprague-Dawley rats", "settings": "inhalation of remimazolam alone, 10 and 25 mg/mL, 5 min", "data": [{"molecule": "COC(=O)CC[C@@H]1N=C(c2ccccn2)c2cc(Br)ccc2-n2c(C)cnc21", "note": "[Remimazolam, methyl 3-[(4S)-8-bromo-1-methyl-6-(pyridin-2-yl)-4H-imidazo[1,2-a][1,4]benzodiazepin-4-yl]propanoate]", "values": [{"measurement": "Analgesia (time to tail flick)", "value": "failed to produce analgesia"}]}]}
